In US8710233B2 (Gruenenthal GmbH, priority 2005, dated 2014):
Where two headings read alike, the source gives them in different places.

Protein sequences, listed by entry. Tags and fused reporters are not part of them.
UniProt Q8NER1, whole entry: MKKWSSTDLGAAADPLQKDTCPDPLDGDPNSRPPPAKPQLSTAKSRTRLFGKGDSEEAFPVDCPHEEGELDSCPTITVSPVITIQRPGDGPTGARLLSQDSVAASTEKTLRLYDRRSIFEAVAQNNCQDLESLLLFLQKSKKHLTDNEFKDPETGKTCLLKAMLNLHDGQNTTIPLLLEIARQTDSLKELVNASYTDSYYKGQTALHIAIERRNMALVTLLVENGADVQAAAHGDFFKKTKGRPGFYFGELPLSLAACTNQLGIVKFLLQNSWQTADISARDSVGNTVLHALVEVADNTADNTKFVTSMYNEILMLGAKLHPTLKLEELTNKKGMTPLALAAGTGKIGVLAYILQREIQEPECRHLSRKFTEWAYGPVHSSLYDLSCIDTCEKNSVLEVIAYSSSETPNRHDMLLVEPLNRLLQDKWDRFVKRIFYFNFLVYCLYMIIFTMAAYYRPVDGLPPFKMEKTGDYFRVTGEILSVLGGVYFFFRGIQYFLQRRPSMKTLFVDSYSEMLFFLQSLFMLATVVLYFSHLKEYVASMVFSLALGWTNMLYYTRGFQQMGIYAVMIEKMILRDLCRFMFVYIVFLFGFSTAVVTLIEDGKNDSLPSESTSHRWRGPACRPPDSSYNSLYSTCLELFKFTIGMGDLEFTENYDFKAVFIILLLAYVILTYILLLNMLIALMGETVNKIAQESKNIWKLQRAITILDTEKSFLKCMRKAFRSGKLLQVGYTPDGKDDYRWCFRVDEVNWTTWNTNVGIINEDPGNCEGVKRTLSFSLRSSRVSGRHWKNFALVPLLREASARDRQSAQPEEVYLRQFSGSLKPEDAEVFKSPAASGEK
UniProt O35433, whole entry: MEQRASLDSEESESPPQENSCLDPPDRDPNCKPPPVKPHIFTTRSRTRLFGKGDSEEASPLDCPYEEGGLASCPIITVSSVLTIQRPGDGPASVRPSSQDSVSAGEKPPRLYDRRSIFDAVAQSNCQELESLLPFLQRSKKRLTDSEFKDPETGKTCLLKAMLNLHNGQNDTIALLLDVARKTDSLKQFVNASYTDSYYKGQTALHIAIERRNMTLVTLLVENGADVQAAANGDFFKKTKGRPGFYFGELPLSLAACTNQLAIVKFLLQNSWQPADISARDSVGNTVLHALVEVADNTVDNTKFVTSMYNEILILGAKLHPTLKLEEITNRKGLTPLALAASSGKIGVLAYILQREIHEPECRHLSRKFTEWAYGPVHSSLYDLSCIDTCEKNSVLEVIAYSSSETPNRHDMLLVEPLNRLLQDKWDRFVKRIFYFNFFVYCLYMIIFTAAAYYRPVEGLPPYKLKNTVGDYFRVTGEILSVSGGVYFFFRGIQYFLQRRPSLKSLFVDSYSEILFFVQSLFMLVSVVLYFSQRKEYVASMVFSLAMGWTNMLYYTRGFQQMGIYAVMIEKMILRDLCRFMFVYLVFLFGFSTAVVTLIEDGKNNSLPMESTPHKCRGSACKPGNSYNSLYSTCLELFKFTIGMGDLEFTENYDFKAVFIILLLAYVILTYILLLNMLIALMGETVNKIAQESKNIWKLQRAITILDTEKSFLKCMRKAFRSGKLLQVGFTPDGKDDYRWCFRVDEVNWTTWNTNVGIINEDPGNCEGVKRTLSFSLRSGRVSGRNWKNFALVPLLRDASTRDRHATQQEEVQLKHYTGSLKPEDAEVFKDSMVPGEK

Experiments:
Type in all cases: cell-based
[1] = target: T1, vanilloid receptor (VR1) (Homo sapiens, UniProt Q8NER1); experiment: FLIPR Ca2+ influx assay on CHO K1 cells transfected with the VR1 gene (pharmacological method II)
T1 construct: expressed in transfected cells; host or cells: CHO K1 cells (ECACC), stably transfected
Source text: In this FLIPR assay, the influx of Ca^2+ is quantified with the assistance of a Ca^2+-sensitive dye (type Fluo-4, Molecular Probes Europe BV, Leiden, Netherlands) in a Fluorescent Imaging Plate Reader (FLIPR, Molecular Devices, Sunnyvale, USA) as described below.
II. Functional Investigations on the Vanilloid Receptor (VR1)
The agonistic or antagonistic action of the substances to be investigated on the vanilloid receptor (VR1) may also be determined with the following assay. According to this assay, the influx of Ca^2+ through the channel is quantified with the assistance of a Ca^2+-sensitive dye (type Fluo-4, Molecular Probes Europe BV, Leiden, Netherlands) in a Fluorescent Imaging Plate Reader (FLIPR, Molecular Devices, Sunnyvale, USA).
Chinese hamster ovary cells (CHO K1 cells, European Collection of Cell Cultures (ECACC), Great Britain) are stably transfected with the VR1 gene. For functional investigations, these cells are plated out onto poly-D-lysine-coated, black 96 well plates with a clear bottom (BD Biosciences, Heidelberg, Germany) at a density of 25,000 cells/well. The cells are incubated overnight at 37° C. and 5% CO2 in a culture medium (Ham's Nutrient Mixture F12, 10 vol. % FCS (foetal calf serum), 18 μg/mL L-proline). On the following day, the cells are incubated with Fluo-4 (Fluo-4 2 μM, Pluronic F127 0.01 vol. %, Molecular Probes in HBSS (Hank's buffered saline solution), Gibco Invitrogen GmbH, Karlsruhe, Germany) for 30 minutes at 37° C. The plates are then washed 3 times with HBSS buffer and, after a further 15 minutes' incubation at room temperature, used for […] measurement in the FLIPR. […] Quantification proceeds by measuring the highest fluorescence intensity (FC, fluorescence counts) over time.
The FLIPR protocol comprises 2 additions of substance. […] After 5 minutes' incubation, 100 nM of capsaicin are added and the influx of Ca^2+ is again determined.
The percentage inhibition in comparison with the maximum achievable inhibition with 10 μM capsaicin is calculated.

[2] = target: VR1/TRPV1 receptor (Homo sapiens, UniProt Q8NER1); experiment: IC50 (human) after pH stimulus
[3] = target: T2, vanilloid receptor 1 (VR1/TRPV1) of the rat species (Rattus norvegicus, UniProt O35433); experiment: FLIPR Ca2+ influx assay on rat dorsal root ganglia cells (pharmacological method I); conditions: table 4; capsaicin; read-out: Ki (rat) Cap.
T2 construct: The spinal column is removed from decapitated rats; from tissue; host or cells: primary cells dissociated from rat dorsal root ganglia
Source text: I. Functional Investigation of the Vanilloid Receptor 1 (VR1/TRPV1 Receptor)
The agonistic or antagonistic action of the substances to be investigated on the vanilloid receptor 1 (VR1/TRPV1) of the rat species may be determined by the following assay. According to this assay, the influx of Ca^2+ through the receptor channel is quantified with the assistance of a Ca^2+-sensitive dye (type Fluo-4, Molecular Probes Europe BV, Leiden, Netherlands) in a Fluorescent Imaging Plate Reader (FLIPR, Molecular Devices, Sunnyvale, USA). […]
The DRGs are in each case repeatedly suspended, drawn by means of a syringe through no. […] The resultant pellet is in each case resuspended in 250 μL of complete medium and the cell count determined. […]
The cells are then loaded with 2 μM Fluo-4 and 0.01 vol. % Pluronic F127 (Molecular Probes Europe BV, Leiden, Netherlands) in HBSS buffer (Hank's buffered saline solution, Gibco Invitrogen GmbH, Karlsruhe, Germany) for 30 min at 37° C., washed 3× with HBSS buffer and, after a further 15 minutes' incubation at room temperature, used for Ca^2+ measurement in the FLIPR assay. […] Quantification proceeds by measuring the highest fluorescence intensity (FC, fluorescence counts) over time.
The FLIPR protocol comprises 2 additions of substance. […] After 5 minutes' incubation, 100 nM of capsaicin are added and the influx of Ca^2+ is again determined. […]

[4] = table 4, capsaicin, read-out: Ki (human) Cap.

| SMILES | Ki ([1]; Table 2, displacement of capsaicin (100 nM), Cheng-Prusoff, read-out: Ki (human)) [pM] | IC50 ([2]; Table 2) [pM] | Ki [3] [pM] | Ki [1, 4] [pM] | IC50 ([2]; table 4) [pM] |
| --- | --- | --- | --- | --- | --- |
| CCCCOc1nc(C(F)(F)F)ccc1CNC(=O)C(C)c1ccc(NS(C)(=O)=O)c(F)c1 (stereo not shown) [Example 19, N-((2-butoxy-6-(trifluoromethyl)pyridin-3-yl)methyl)-2-(3-fluoro-4-(methylsulfonamido)phenyl)propanamide] | 300 | 31000 |  |  |  |
| CC(C(=O)NCc1ccc(C(F)(F)F)nc1OCc1ccccc1)c1ccc(NS(C)(=O)=O)c(F)c1 (stereo not shown) [Example 106, N-(2-benzyloxy-6-trifluoromethyl-pyridin-3-ylmethyl)-2-(3-fluoro-4-methylsulfonamido-phenyl)-propionamide] |  |  | 500 |  |  |
| CC(C(=O)NCc1ccc(C(F)(F)F)nc1N1CCC(c2ccccc2)CC1)c1ccc(NS(C)(=O)=O)c(F)c1 (stereo not shown) [Example 137] |  |  |  | 700 | 12500 |
| CC(C(=O)NCc1ccc(C(F)(F)F)nc1C=CC(C)(C)C)c1ccc(NS(C)(=O)=O)c(F)c1 (stereo not shown) [Example 274, N-[2-(3,3-dimethyl-but-1-enyl)-6-trifluoromethyl-pyridin-3-ylmethyl]-2-(3-fluoro-4-methylsulfonamido-phenyl)-propionamide] |  |  |  | 700 | 63000 |
